Measured values reported in paper PMC8765275, “Self-Inhibitory Peptides Targeting the Neisseria gonorrhoeae MtrCDE Efflux Pump Increase Antibiotic Susceptibility” (Antimicrobial Agents and Chemotherapy, 2022).

Key:
Assay type in all cases: cell-based, Neisseria gonorrhoeae
Details in all cases: antibiotic alone, EUCAST breakpoints
[1] = system: N. gonorrhoeae strain FA1090 (standard MtrCDE expression); assay: MIC, broth microdilution (CLSI), antibiotic alone, peptide alone or peptide cotreatment
Description: (§1) Six peptides were tested against N. gonorrhoeae strains with various antimicrobial resistance phenotypes and with either standard MtrCDE expression (strain FA1090) or MtrCDE overexpression (strains WHO K, WHO P, and WHO X [15, 16]) (Table 2). […] Subsequent experiments were conducted with subinhibitory peptide concentrations (20 μg/ml for FA1090; 50 μg/ml for WHO K, WHO P, and WHO X).
(§2) Experiments were performed using a microdilution method in triplicate wells.
(§3) High-level resistance, resistance, intermediate resistance, and susceptibility phenotypes were determined per previously determined MIC values ([15]) using the interpretive criteria published by the Swedish Reference Group on Antibiotics (SGRA) ([25]). For cotreatment assays (peptide plus antibiotic), the antibiotic dilutions were made up in GC broth that contained the peptide at the appropriate concentration. The experiments were performed with peptide-only and antibiotic-only controls. Each well was inoculated with 10 μl of the appropriate N. gonorrhoeae strain at an optical density (absorbance at 600 nm) of 0.1 (∼1 × 10^6 CFU/ml). All experiments were performed with triplicate samples on at least three occasions.

[2] = system: N. gonorrhoeae strain WHO P (MtrCDE overexpression)
Description: as §1, §2, §3

[3] = system: N. gonorrhoeae strain WHO X (MtrCDE overexpression)
Description: as §1, §2, §3

SMILES | Antimicrobial resistance phenotype, AZM [1] | Antimicrobial resistance phenotype, AZM [2] | Antimicrobial resistance phenotype, AZM [3] | Antimicrobial resistance phenotype, CRO [1] | Antimicrobial resistance phenotype, CRO [2] | Antimicrobial resistance phenotype, CRO [3]
CC[C@H]1OC(=O)[C@H](C)[C@@H](O[C@H]2C[C@@](C)(OC)[C@@H](O)[C@H](C)O2)[C@H](C)[C@@H](O[C@@H]2O[C@H](C)C[C@H](N(C)C)[C@H]2O)[C@](C)(O)C[C@@H](C)CN(C)[C@H](C)[C@@H](O)[C@]1(C)O [AZM, azithromycin] | S (S ≤ 0.25) | R (R > 0.5) | I |  |  | 
CO/N=C(\C(=O)N[C@@H]1C(=O)N2C(C(=O)O)=C(CSc3nc(=O)c(=O)[nH]n3C)CS[C@H]12)c1csc(N)n1 [CRO, ceftriaxone] |  |  |  | S (S ≤ 0.125) | S (S ≤ 0.125) | 2 (HLR)
